From ChEMBL document CHEMBL1134447 (J Med Chem, 2001) come the findings set out here.

SMILES strings stand for the structures.

Data set [1] in a line: Solubility (phosphate buffered saline). Conditions: buffer.
Data set [2] can be described thus: Partition coefficient (logD7.4). Conditions: octanol/water, pH 7.4.

In general, logD refers to the decadic logarithm of the distribution of all forms, ionised or not, between an organic phase and buffer at a given pH. Read a high logD as higher lipophilicity.

For the compound `O=C(Cc1c[nH]c2ccc(Br)cc12)N1CCN(c2ccc([N+](=O)[O-])c3nonc23)CC1`, in data set [1], the S was < 10 µM.

For the compound `O=C(OCc1cc2c(cc1[N+](=O)[O-])OCO2)N1CCC(n2c(O)nc3ccccc32)CC1`, the S in data set [1] was < 10 µM.

On to `O=C(OCc1cccnc1)N1CCC2(CC1)C(=O)NCN2c1ccccc1`, for which the S in data set [1] came to 105 µM.

For the compound `O=C(OCc1cc2c(cc1[N+](=O)[O-])OCO2)N1CCC2(CC1)C(=O)NCN2c1ccccc1`, the S in data set [1] is < 10 µM.

Turning to `O=C(/C=C/c1cc2c(cc1[N+](=O)[O-])OCO2)N1CCC2(CC1)C(=O)NCN2c1ccccc1`, the pH-dependent lipophilicity (logD) in data set [2] came out at 3.1. The same compound displayed a S in data set [1] of 24.3 µM.

As to `O=C(OCc1ccc2nsnc2c1)N1CCC2(CC1)C(=O)NCN2c1ccccc1`, the logD in data set [2] was determined as 3.4. For the same compound, the S in data set [1] was < 10 µM.

As to `COc1cc(CC(=O)N2CCC(n3c(O)nc4ccccc43)CC2)c([N+](=O)[O-])cc1OC`, the logD in data set [2] was determined as 2.4. In data set [1], the S is < 10 µM.

In turn, `Cc1ncc([N+](=O)[O-])n1CCNC(=O)N1CCC(c2cc(-c3ccc(Cl)cc3Cl)n[nH]2)CC1` returned a S in data set [1] of 46.5 µM.

Consider `O=C(O)CN1CN(c2ccccc2)C2(CCN(C(=O)OCc3cc4c(cc3Cl)OCO4)CC2)C1=O`, for which the log distribution coefficient (logD) in data set [2] stood at 0.7. This compound also yielded a S in data set [1] of 98.1 µM.

The compound `COc1cc(/C=C/C(=O)N2CCC3(CC2)C(=O)NCN3c2ccccc2)c([N+](=O)[O-])cc1OC` yielded a logD in data set [2] of 3. In data set [1], the S worked out at 34.8 µM.

For `O=C(c1cc2cc(Cl)ccc2[nH]1)N1CCN(S(=O)(=O)c2ccc([N+](=O)[O-])cc2[N+](=O)[O-])CC1`, in data set [2], the logD was > 4. Also, in data set [1], the S was < 10 µM.

`O=C(NCc1ccc2c(c1)OCO2)N1CCC2(CC1)C(=O)NCN2c1ccccc1`: the logD in data set [2] is 2.8. This compound displayed a S in data set [1] of 28.8 µM.

As to `O=C1CNc2ccccc2N1C1CCN(Cc2cc3c(cc2Cl)OCO3)CC1`, the log distribution coefficient (logD) in data set [2] worked out at 1.3. Further, the S in data set [1] was 46.4 µM.

With `O=C(NCCn1c(=O)[nH]c2ccccc21)OCc1cc2c(cc1Cl)OCO2`, the S in data set [1] was < 10 µM.
